AlphaSeq binding of Ab-14 light chain variants to a spike HR2 peptide

Values reported by Engelhart et al. 2022, doi:10.1038/s41597-022-01779-4 (FLAb copy).

Binding partner: SARS-CoV-2 spike HR2 peptide, sequence PDVDLGDISGINAS.

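In library AAYL50, one, two or three CDR residues were substituted; doubles and triples were drawn at random. The scFvs were displayed on barcoded MATa yeast, the peptide on MATalpha yeast. Pairs that bind mate more often; barcode pairs of the diploids are counted by sequencing. Scores were corrected for input abundance and mapped to Kd with protein pairs of known affinity run in the same pool. There are three technical replicates.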

Parent: Ab-14, a human scFv built as VH, a 15-residue (Gly4Ser)3 linker, VL. Only the CDRs of the light chain vary.
VH: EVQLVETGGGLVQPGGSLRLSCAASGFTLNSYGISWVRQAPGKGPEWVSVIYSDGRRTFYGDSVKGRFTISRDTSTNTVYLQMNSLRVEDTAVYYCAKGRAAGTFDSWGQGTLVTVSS
VL: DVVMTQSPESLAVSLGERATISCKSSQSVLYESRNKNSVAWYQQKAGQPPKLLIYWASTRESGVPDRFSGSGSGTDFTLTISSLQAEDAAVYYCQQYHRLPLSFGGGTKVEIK

Variants are written as CDR1, CDR2 and CDR3 of the light chain (limits as in the source). Parent: KSSQSVLYESRNKNSVA, WASTRES, QQYHRLPLS. The read-out is the apparent dissociation constant on a log10 scale (nM): the lower, the stronger. "n.d." marks a missing value. The strain was present, yet no cells mated with the target were sequenced in that replicate, which points to weak or no binding. In this assay the parent's reference entry averaged 0.65; its copy inside this library read 1.68.

| replicates, log10 nM | CDR-L1 | CDR-L2 | CDR-L3 |
|---|---|---|---|
| n.d. n.d. 6.21 | NSSQSVLYESRNKNSWA | WASTRES | QQYHRLVLS |
| 1.96 1.87 1.80 | KSSQSPLYESRNKNSVA | WASTRES | QQYHRLMPS |
| 2.06 2.13 2.61 | KESQSVLYESRNKNSVA | WACIRES | QQYHRLPLS |
| 1.51 1.76 1.81 | KSSQSLLYESRNKNSVA | WASTRWS | QQYHRLPLQ |
| n.d. n.d. n.d. | KSAQSVLYESRNKNSVV | WASTRES | QQYHRSPLS |
| 4.18 4.96 n.d. | NSSQSVLYESRGKNSVA | WASTRES | QQYHRLPKS |
| n.d. n.d. n.d. | KSSQSVLYESRNKNSVA | WASTRES | QAYHGLPYS |
| n.d. 4.56 n.d. | KSSQSVLYEIRNKNSVA | WAATRES | QYYHRLPLS |
| 1.98 2.05 2.55 | KSSQSVLYESRNKNSVA | WASTHES | QQYARFPLS |
| 2.17 2.23 2.54 | TSSQSVLYESKNKNHVA | WASTRES | QQYHRLPLS |
| n.d. n.d. n.d. | KSSQSVLYISRNKNMVA | WASTRES | QQYHGLPLS |
| n.d. n.d. n.d. | KSIQSVLYESRNKNSVA | WASTWES | QFYHRLPLS |
| 0.87 0.88 0.92 | KSSQSVLYESGNKLSVA | WASVRES | QQYHRLPLS |
| n.d. n.d. n.d. | KSSQSVLYESRNKNSVV | RASTRES | QQVHRLPLS |
| 4.50 n.d. n.d. | KSCQSVLYESSNKNSVA | WASTRES | QQYHRLPVS |
| 1.10 1.17 1.19 | KFSPSVLYESRNKNSVA | WASTQES | QQYHRLPLS |
| 4.55 3.03 n.d. | KSRQSVLYVSRNKNNVA | WASTRES | QQYHRLPLS |
| n.d. n.d. n.d. | KSSQSVLYESRNKNSVA | WAHTRES | QQYHRLPAS |
| 3.97 n.d. n.d. | KSSQSVLYESRNQASVA | WASTRES | QQYHRLPCS |
| 2.76 n.d. n.d. | KSSQSVKYESRNKNSVA | WAHTRES | QQRHRLPLS |
| 1.56 1.64 1.95 | KSSQSVLYESRNKNSVA | WASTRES | QPYYRLPLS |
| n.d. n.d. n.d. | KDSQSVLYESRNKNSVM | WASTRES | QQYHRLPLS |
| n.d. n.d. n.d. | KSSQSVLYESRNKNSVA | WDSTGES | QQYHWLPLS |
| n.d. 3.59 n.d. | KSSQSPLYESRNKNSQA | WASTRES | QQYHCLPLS |
| n.d. n.d. 4.44 | KSSQSVLYESRNKNSVA | WALTIES | QQYHRLPPS |
| 2.36 1.88 2.79 | KSSQSCLYESRNKNSVA | WASTRIS | QQYHRLPLL |
| n.d. n.d. n.d. | VSEQSVLYESRNKNSVA | WASTRES | QQTHRLPLS |
| -0.34 -0.08 -0.31 | KNSQSVLYESRNKNSVA | HASTRES | QQYHRLPLD |
| 4.88 n.d. n.d. | KSSQSMLYESRNKNSAA | WASTRES | QQYHNLPLS |
| 1.58 1.80 1.87 | KSSQSVLYQSANKNSVA | KASTRES | QQYHRLPLS |
| n.d. n.d. n.d. | KSSQSVLYESRNKNSVG | WASTRES | QQYHRLPRS |
| n.d. n.d. n.d. | KSSQSVLYESRNKNSKY | WASTRES | QQYHCLPLS |
| 1.35 1.28 1.26 | KSSQSVLYKSRNKNSVA | AASTRES | QQYHRTPLS |
| 2.57 2.76 2.88 | KSYQWVLYESRNKNSVA | WASTRES | QQYHRLPLS |

A selection of 3 entries from above:

| CDR-L1 | CDR-L2 | CDR-L3 | replicates, log10 nM |
|---|---|---|---|
| KSSQSVLYESRNKNSVV | RASTRES | QQVHRLPLS | n.d. n.d. n.d. |
| KESQSVLYESRNKNSVA | WACIRES | QQYHRLPLS | 2.06 2.13 2.61 |
| KSSQSVLYESRNKNSVA | WALTIES | QQYHRLPPS | n.d. n.d. 4.44 |

As a blank, each scFv also met three strains without target: over library AAYL50, 18% of these pairings were detected, typically at 4.19 and seldom below 2.99.